Data as given in PMC8309108, “Rapid and Sensitive Quantification of Intracellular Glycyl-Sarcosine for Semi-High-Throughput Screening for Inhibitors of PEPT-1” (Pharmaceutics, 2021).

Target: T1, PEPT-1 (Homo sapiens, UniProt P46059)
T1 construct: allowed to differentiate for at least 7 d to ensure sufficient PEPT-1 expression; host or cells: Caco-2
T1 sequence (P46059 1-708): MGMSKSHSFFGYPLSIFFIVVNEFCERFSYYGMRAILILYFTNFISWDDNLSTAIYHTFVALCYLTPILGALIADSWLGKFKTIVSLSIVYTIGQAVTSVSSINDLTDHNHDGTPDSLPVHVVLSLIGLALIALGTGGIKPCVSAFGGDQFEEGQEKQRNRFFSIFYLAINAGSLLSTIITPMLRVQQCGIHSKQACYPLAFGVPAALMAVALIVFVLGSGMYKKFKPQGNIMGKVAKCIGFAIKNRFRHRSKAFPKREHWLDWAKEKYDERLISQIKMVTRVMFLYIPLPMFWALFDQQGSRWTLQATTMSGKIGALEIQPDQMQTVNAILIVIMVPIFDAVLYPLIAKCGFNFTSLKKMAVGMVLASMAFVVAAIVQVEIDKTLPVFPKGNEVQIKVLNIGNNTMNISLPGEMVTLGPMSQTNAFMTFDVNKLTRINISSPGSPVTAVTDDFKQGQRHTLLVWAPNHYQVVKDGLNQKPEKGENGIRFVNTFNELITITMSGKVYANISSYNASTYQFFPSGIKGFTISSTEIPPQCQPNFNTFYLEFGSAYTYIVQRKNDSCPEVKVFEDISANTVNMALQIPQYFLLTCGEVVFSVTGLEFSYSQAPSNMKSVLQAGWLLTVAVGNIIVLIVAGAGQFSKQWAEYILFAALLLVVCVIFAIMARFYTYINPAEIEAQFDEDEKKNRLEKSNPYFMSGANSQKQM
Test: Inhibition of PEPT-1 mediated Gly-Sar uptake in Caco-2 cells (UPLC-MS/MS quantification of intracellular Gly-Sar)
Assay type: cell-based
Settings: representative study sample, incubation with 20 µM Gly-Sar and 1 mM losartan for 10 min
Protocol: Caco-2 cells were cultivated in DMEM supplemented with 10% FBS, glutamine (2 mM), penicillin (100 U/mL), streptomycin (100 µg/mL), and 1% NEAS. They were kept at 37 °C and 5% CO2 and passaged once a week. For validation and uptake experiments, cells were seeded in 96-well plates at a density of 6.25 × 10^4 cells/cm^2 and allowed to differentiate for at least 7 d to ensure sufficient PEPT-1 expression. The uptake buffer (MES) was prepared as previously described by Sun et al. and contained 50 mM MES, 136.9 mM NaCl, 5.4 mM KCl, 1.26 mM CaCl2, 0.81 mM MgSO4 × 7 H2O, 0.5 mM Na2HPO4, 0.44 mM KH2PO4, 0.42 mM NaHCO3, and 5.54 mM glucose. The pH value of the uptake buffer was adjusted to pH = 6.0 using either HCl or NaOH solutions. Gly-Sar uptake was tested after 7, 24, and 28 d of Caco-2 cell differentiation. […]
The quantification of Gly-Sar in cell homogenates was performed on a UPLC-MS/MS system consisting of a triple-stage quadrupole mass spectrometer (Waters Xevo TQ-XS with Z-spray ESI source) and an Acquity Classic UPLC® (Waters, Milford, MA, USA). […] Quantification of Gly-Sar and IS was performed by selected reaction monitoring (SRM) using argon collision gas for collision-induced dissociation (CID). […]

intracellular Gly-Sar concentration: 23.9 ng/mL
SMILES: CCCCc1nc(Cl)c(CO)n1Cc1ccc(-c2ccccc2-c2nn[nH]n2)cc1 [losartan]
